Assay [1] addresses human orexin 2 receptor (Homo sapiens (Human), UniProt O43614). Description: Human orexin 2 receptor radioligand binding (competitive, [3H]-EMPA, HEK293 cell preparations). The note with it: hOX2 Ki (nm).
In assay [2] the target is rat orexin 1 receptor (Rattus norvegicus, UniProt P56718). Description: Rat orexin 1 receptor radioligand binding (competitive, [3H]-SB674042, HEK293 cell preparations).
In assay [3] the target is human orexin 1 receptor (Homo sapiens (Human), UniProt O43613). Description: Human orexin 1 receptor radioligand binding (competitive, [3H]-SB674042, CHO cell preparations). The note with it: hOX1 Ki (nm).

By UniProt entry, the sequences of proteins in these tests, tags left out.
UniProt O43614, whole entry: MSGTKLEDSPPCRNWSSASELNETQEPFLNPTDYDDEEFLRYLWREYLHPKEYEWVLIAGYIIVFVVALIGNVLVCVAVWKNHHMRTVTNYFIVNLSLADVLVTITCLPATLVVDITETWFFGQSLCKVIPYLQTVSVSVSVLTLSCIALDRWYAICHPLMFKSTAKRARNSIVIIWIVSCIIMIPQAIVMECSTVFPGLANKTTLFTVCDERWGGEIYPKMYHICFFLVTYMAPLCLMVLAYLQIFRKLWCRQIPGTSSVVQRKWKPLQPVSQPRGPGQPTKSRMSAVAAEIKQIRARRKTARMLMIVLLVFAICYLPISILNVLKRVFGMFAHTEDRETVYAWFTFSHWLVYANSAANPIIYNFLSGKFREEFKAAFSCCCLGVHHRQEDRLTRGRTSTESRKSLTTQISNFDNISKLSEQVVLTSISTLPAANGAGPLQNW
UniProt O43613, whole entry: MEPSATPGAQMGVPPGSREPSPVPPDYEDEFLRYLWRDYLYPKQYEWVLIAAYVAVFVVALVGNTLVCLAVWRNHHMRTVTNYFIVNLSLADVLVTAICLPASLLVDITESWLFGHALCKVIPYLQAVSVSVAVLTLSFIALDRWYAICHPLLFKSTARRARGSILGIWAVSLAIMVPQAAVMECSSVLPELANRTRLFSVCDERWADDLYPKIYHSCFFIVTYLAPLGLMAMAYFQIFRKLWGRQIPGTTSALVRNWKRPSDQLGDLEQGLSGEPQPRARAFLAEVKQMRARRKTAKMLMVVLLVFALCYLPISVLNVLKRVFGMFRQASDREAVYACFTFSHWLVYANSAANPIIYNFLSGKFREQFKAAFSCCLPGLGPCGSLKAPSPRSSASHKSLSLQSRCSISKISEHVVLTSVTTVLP

Like-named read-outs stand apart in the source and are kept apart here.

The term Ki denotes the equilibrium dissociation constant of an inhibitor or competing ligand from its target. `CCOc1ncc2ccccc2c1C(=O)N1C2CCC1C(COc1ccccn1)C2` (racemic) [Example 83, (±)-(3-ethoxyisoquinolin-4-yl)(2-((pyridin-2-yloxy)methyl)-7-azabicyclo[2.2.1]heptan-7-yl)methanone] displayed a Ki in assay [1] of 271 nM. `COc1c(F)cccc1C(=O)N1C2CCC1C(COc1ccc(F)cn1)C2` (racemic) [Example 107, (±)-((3-fluoro-2-methoxyphenyl)(2-(((5-fluoropyridin-2-yl)oxy)methyl)-7-azabicyclo[2.2.1]heptan-7-yl)methanone]: the inhibitory constant (Ki) in assay [2] (rat orexin 1 receptor, [3H]-SB674042 competition binding, read-out: rOX1 Ki (nm)) turned out to be 440 nM. Consider `O=C(c1ccccc1-n1nccn1)N1C2CCC1C(Nc1cnc(C(F)(F)F)cn1)C2` (racemic) [Example 182, (±)-((2-(2H-1,2,3-triazol-2-yl)phenyl)(2-((5-(trifluoromethyl)pyrazin-2-yl)amino)-7-azabicyclo[2.2.1]heptan-7-yl)methanone], for which the Ki in assay [2] (rOX1 Ki (nm)) worked out at 47 nM. In turn, `O=C(c1ccccc1-n1nccn1)N1C2CCC1C(Nc1ncc(C(F)(F)F)cn1)C2` (racemic) [Example 221, (±)-(2-(2H-1,2,3-triazol-2-yl)phenyl)(2-(5-(trifluoromethyl)pyrimidin-2-yl)amino)-7-azabicyclo[2.2.1]heptan-7-yl)methanone] showed an inhibition constant (Ki) in assay [1] of 3300 nM.

With `O=C(c1ccccc1-n1nccn1)N1C2CCC1C(Nc1cc(C(F)(F)F)ccn1)C2` (single isomer, unassigned) [Example 210, (±)-((2-(2H-1,2,3-triazol-2-yl)phenyl)(2-(4-(trifluoromethyl)pyridin-2-yl)amino)-7-azabicyclo[2.2.1]heptan-7-yl)methanone], the Ki in assay [2] (rOX1 Ki (nm)) worked out at 211 nM; in assay [1], 128 nM. The like results for `O=C(c1ccccc1-n1nccn1)N1C2CCC1C(Nc1cc(C(F)(F)F)ccn1)C2` (single isomer, unassigned) [Example 235, (±)-((2-(2H-1,2,3-triazol-2-yl)phenyl)(2-((4-(trifluoromethyl)pyridin-2-yl)amino)-7-azabicyclo[2.2.1]heptan-7-yl)methanone] were, in that order, more than 10000 nM and more than 10000 nM. For the compound `Cc1ccc(-n2nccn2)c(C(=O)N2[C@@H]3CC[C@H]2[C@H](COc2ccc(F)cn2)C3)n1` [Example 8A, ((1S,2R,4R)-2-(((5-fluoropyridin-2-yl)oxy)methyl)-7-azabicyclo[2.2.1]heptan-7-yl)(6-methyl-3-(2H-1,2,3-triazol-2-yl)pyridin-2-yl)methanone], the Ki in assay [3] was found to be 14 nM.

(Values after patent US9062078B2, “Substituted 7-azabicyles and their use as orexin receptor modulators” (priority 2013, dated 2015).)
